Measurements reported in paper PMC6443996 (FEBS Open Bio, 2019).

Biological target: CNOT1 (MIF4G and DUF3819 domains; […]) (human)
Assay: reconstitution of a complex from purified parts; pentameric central module reconstituted after separate expression and purification of the nuclease module and the CNOT1-CNOT9 dimeric complex; 14% SDS/PAGE, Coomassie Brilliant Blue
Conditions: both partners purified

binding result: binds
B1: Caf1 (D40A) (enzyme)
chain: not shown
notes: also called CNOT7 D40A
